Consider one molecule from patent US20120270905A1, “FLUORINATED 2,6-DIALKYL-3,5-DICYANO-4-(1H-INDAZOL-5-YL)-1,4-DIHYDROPYRIDINES AND METHODS OF USE THEREOF” (BAYER PHARMA AKTIENGESELLSCHAFT, priority 2009, published 2012).

Protein sequences, listed by entry. Tags and fused reporters are not part of them. Residues count along the entry.
UniProt P08581, 25-1390 limits assumed: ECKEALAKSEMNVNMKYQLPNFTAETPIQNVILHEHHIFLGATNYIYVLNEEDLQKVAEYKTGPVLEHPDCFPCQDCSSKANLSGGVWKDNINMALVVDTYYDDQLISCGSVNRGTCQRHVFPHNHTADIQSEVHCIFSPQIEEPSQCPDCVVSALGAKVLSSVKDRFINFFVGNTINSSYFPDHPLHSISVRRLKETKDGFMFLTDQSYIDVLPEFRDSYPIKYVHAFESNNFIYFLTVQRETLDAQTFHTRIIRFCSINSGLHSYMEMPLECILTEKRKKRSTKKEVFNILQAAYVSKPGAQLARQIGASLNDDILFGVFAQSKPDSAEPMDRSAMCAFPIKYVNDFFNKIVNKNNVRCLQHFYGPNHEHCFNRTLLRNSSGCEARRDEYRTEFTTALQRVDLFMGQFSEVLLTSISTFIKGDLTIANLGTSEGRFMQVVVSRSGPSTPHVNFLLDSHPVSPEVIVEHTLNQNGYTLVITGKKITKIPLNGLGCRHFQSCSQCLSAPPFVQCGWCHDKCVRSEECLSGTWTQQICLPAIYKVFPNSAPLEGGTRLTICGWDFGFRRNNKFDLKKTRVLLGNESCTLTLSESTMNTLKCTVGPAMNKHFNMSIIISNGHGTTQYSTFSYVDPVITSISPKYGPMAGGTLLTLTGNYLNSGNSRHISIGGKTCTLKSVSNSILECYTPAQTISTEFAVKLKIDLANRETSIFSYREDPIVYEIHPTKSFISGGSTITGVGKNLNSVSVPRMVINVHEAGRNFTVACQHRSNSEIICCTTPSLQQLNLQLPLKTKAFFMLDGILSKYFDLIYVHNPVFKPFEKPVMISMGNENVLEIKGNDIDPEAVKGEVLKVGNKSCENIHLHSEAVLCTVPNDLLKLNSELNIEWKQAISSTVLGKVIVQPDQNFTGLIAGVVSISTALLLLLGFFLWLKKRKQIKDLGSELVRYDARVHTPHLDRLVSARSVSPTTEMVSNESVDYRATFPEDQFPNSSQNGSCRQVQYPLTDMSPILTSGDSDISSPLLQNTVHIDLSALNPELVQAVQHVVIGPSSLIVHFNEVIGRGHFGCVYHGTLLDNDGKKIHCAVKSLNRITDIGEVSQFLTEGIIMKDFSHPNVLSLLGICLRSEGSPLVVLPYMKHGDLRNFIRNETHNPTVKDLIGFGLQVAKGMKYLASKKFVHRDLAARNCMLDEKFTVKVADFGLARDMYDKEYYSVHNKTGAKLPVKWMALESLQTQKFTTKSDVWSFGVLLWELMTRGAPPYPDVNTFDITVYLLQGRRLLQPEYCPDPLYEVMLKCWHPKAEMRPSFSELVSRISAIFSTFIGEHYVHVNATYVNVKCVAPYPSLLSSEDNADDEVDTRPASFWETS
UniProt P08581, 960-1390 limits assumed: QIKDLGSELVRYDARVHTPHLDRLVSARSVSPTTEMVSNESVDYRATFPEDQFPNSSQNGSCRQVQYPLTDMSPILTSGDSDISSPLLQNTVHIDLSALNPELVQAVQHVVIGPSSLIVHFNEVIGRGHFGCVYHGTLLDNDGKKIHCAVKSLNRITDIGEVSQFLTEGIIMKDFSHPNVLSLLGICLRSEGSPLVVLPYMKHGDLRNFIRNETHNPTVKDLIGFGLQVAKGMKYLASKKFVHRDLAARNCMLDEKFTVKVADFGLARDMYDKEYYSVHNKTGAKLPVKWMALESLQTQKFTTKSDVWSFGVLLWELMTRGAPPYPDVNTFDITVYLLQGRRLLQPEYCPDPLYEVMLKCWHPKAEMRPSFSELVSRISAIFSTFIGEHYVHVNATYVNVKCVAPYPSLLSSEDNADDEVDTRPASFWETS

Data set [1] concerns the target recombinant kinase domain of the human c-Met (amino acids 960-1390) (Homo sapiens, UniProt P08581). Nature of the data set: c-Met receptor tyrosine kinase homogeneous time-resolved fluorescence assay (alternative format). Particulars: HTRF format; ATP 10 μM, 30 min at 22° C. The text has this: c-Met Receptor Tyrosine Kinase Homogeneous Time-Resolved Fluorescence Assay (Alternative Format):
The N-terminally His6-tagged recombinant kinase domain of the human c-Met (amino acids 960-1390), expressed in insect cells (SF21) and purified by Ni-NTA affinity chromatography and consecutive size exclusion chromatography (Superdex 200), is used. Alternatively, commercially available c-Met (Millipore) can be used. As substrate for the kinase reaction, the biotinylated poly-Glu,Tyr (4:1) copolymer (#61GT0BLC, Cis Biointernational, Marcoule, France) is used.
For the assay, 50 nL of a 100-fold concentrated solution of the test compound in DMSO is pipetted into a black low-volume 384-well microtiter plate (Greiner Bio-One, Frickenhausen, Germany). […]
The resulting mixture is incubated for 1 h at 22° C. to allow the binding of the biotinylated phosphorylated peptide to the streptavidine-XLent and the PT66-Eu-chelate. Subsequently, the amount of phosphorylated substrate is evaluated by measurement of the resonance energy transfer from the PT66-Eu-chelate to the streptavidine-XLent. Therefore, the fluorescence emissions at 620 nm and 665 nm after excitation at 350 nm are measured in an HTRF reader, e.g. Rubystar (BMG Lab-technologies, Offenburg, Germany) or Viewlux (Perkin-Elmer). […]
In general terms: In TR-FRET formats the signal depends on donor and acceptor labels being close together.

Data set [2] addresses Recombinant human c-Met protein (Homo sapiens, UniProt P08581). In words: c-Met receptor tyrosine kinase activity assay (NADH read-out). Particulars: c-Met 30 nM, ATP 30 μM, 100 min at 32° C. On the procedure:
c-Met Receptor Tyrosine Kinase Activity Assay (NADH Read-Out):
Recombinant human c-Met protein (Invitrogen, Carlsbad, Calif., USA) is used. As substrate for the kinase reaction the peptide KKKSPGEYVNIEFG (JPT, Germany) is used. For the assay, 1 μL of a 51-fold concentrated solution of the test compound in DMSO is pipetted into a white 384-well microtiter plate (Greiner Bio-One, Frickenhausen, Germany). 25 μL of a solution of c-Met (final concentration 30 nM) and pyruvate kinase/lactate dehydrogenase (Roche Diagnostics, Mannheim, Germany; final concentration 8 mg/L) in assay buffer [3-(N-morpholino)propanesulfonic acid (MOPS), 50 mM, pH 7; MgCl2, 10 mM; bovine serum albumin (BSA), 0.01%; Triton X 100, 0.01%; DTT, 2 mM] are added, and the mixture is incubated for 5 min at room temperature. […]
Subsequently, the amount of phosphorylated substrate is evaluated by measurement of the decrease of NADH fluorescence. Therefore, the fluorescence emissions at 465 nm after excitation at 340 nm is measured in a fluorescence reader, e.g. Tecan Ultra (Tecan, Männedorf, Switzerland). […]

Data set [3] deals with Human Caco-2 cells. Nature of the data set: Caco-2 permeability assay. Particulars: apical to basolateral; test concentration 2 μM; 2 h at 37° C. The text has this: Caco-2 Permeability Assay:
The in vitro permeation of a test compound across a Caco-2 cell monolayer is a well-established assay system to predict the permeability from the gastro-intestinal tract [cf. P. Artursson and J. Karlsson: Correlation between oral drug absorption in humans and apparent drug permeability coefficients in human intestinal epithelial (Caco-2) cells, Biochem. Biophys. 175 (3), 880-885 (1991)]. The permeability of the compounds of the present invention in such Caco-2 cells was deter-mined as described below:
Human Caco-2 cells (ACC No. 169, DSMZ, German Collection of Microorganisms and Cell Cultures, Braunschweig, Germany) are seeded on 24-well insert plates and are allowed to grow for 14-16 days. For permeability studies, the test compounds are dissolved in DMSO and diluted to the final test concentration of 2 μM with transport buffer [Hanks' Buffered Salt Solution, Gibco/Invitrogen, further supplemented with glucose (final concentration 19.9 mM) and HEPES (final concentration 9.8 mM)]. […] Samples are analyzed by LC-MS/MS, and the apparent permeability coefficients are calculated. Lucifer Yellow permeability is assayed for each cell monolayer to ensure cell monolayer integrity, and the permeability of Atenolol (low permeability marker) and Sulfasalazine (marker for active excretion) is determined for each batch as quality control. […]
(Passage across Caco-2 layers is used to estimate intestinal permeability.)

Usually IC50 stands for the concentration that inhibits the measured activity by half. On to `CC1=C(C#N)C(c2ccc3[nH]ncc3c2)C(C#N)=C(C)N1`, for which the IC50 in data set [1] worked out at 2 nM; in data set [2], 8 nM. Also, the “Caco-2 permeability PappA-B” value in data set [3] stood at 12.4 ×10⁻⁶ cm/s.
